# Laboratory results taken from patent US11911467B2, “Composition comprising PIC for treatment of cancer” (Yisheng Biopharma (Singapore) PTE LTD, priority 2016, dated 2024).
# Test system: LL/2 murine Lewis lung tumor
# Conditions: end of study; 0.2 mL/mouse i.m. Q2D total 7 times; Cisplatin 5 mg/kg i.v. total 2 times
substance,measurement,value
Cisplatin,Relative tumor proliferation rate T/C,47.46%
same,Tumor inhibition rate (tumor weight),42.38%
